Test results from ChEMBL document CHEMBL1144357, “Synthesis, biological evaluation, and molecular modeling of ribose-modified adenosine analogues as adenosine receptor agonists” (J Med Chem, 2005).

How the values were obtained:
[1] = system: Adenosine receptor A3, Bos taurus; experiment: Percent displacement of [125I]AB-MECA binding to adenosine A3 receptors of bovine cortical membranes at 0.00005 M; conditions: 0.00001 M
[2] = system: Adenosine receptor A2a, Bos taurus; experiment: Percent displacement of [3H]CGS-21680 binding to adenosine A2A receptors of bovine striatal membranes at 0.00005 M; conditions: 0.00001 M
[3] = system: Adenosine receptors A1 & A3 (Bos taurus); experiment: Relative affinities for adenosine A3 and A1 receptors (ratio of KiA3/KiA1)

| Displacement [1] [%] | Displacement [2] [%] | Ratio [3] | Compound |
| --- | --- | --- | --- |
| 0 | 4 |  | C[C@@]1(O)[C@@H](CO)O[C@@H](n2cnc3c(N)ncnc32)[C@@H]1O |
|  |  | 0.54 | CCNC(=O)[C@H]1O[C@@H](n2cnc3c(N)ncnc32)[C@](C)(O)[C@@H]1O |
